# Assay results: ChEMBL document CHEMBL4813982, “Novel pyrazolo[4,3-d]pyrimidine microtubule targeting agents (MTAs): Synthesis, structure-activity relationship, in vitro and in vivo evaluation as antitumor agents” (Bioorg Med Chem Lett, 2021)
# Legend:
# [1] = Resistance ratio of IC50 for antiproliferative activity against human NCI/ADR-RES cells expressing Pgp to IC50 for antiproliferative activity against human OVCAR-8 cells; format: functional
# NCI/ADR-RES = test: Antiproliferative activity against human NCI/ADR-RES cells overexpressing Pgp; format: functional, cell-based
structure (smiles),measurement,setting,value
CC(=O)O[C@H]1C(=O)[C@@]2(C)[C@H]([C@H](OC(=O)c3ccccc3)[C@]3(O)C[C@H](OC(=O)[C@H](O)[C@@H](NC(=O)c4ccccc4)c4ccccc4)C(C)=C1C3(C)C)[C@]1(OC(C)=O)CO[C@@H]1C[C@@H]2O [PACLITAXEL],Ratio IC50,[1],150
same,IC50,NCI/ADR-RES,800 nM
